Test results: ChEMBL document CHEMBL1141597, “2-Alkyl-4-aryl-pyrimidine fused heterocycles as selective 5-HT2A antagonists” (Bioorg Med Chem Lett, 2008)

The chains behind the UniProt entries cited, without tags or fusion partners.
UniProt P41595, whole entry: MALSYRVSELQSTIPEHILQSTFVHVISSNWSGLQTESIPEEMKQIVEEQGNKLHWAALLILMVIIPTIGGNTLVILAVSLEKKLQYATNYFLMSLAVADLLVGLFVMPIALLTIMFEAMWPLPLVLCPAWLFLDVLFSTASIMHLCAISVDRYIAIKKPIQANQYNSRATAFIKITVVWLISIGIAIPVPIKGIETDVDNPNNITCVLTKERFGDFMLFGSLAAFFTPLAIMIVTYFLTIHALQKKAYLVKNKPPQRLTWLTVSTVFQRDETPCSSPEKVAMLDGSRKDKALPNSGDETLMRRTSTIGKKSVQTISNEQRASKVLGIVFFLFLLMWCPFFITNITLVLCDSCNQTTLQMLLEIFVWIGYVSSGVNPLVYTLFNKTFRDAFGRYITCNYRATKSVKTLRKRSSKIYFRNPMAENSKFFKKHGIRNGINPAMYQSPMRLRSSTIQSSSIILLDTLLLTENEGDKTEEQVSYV
UniProt P28223, whole entry: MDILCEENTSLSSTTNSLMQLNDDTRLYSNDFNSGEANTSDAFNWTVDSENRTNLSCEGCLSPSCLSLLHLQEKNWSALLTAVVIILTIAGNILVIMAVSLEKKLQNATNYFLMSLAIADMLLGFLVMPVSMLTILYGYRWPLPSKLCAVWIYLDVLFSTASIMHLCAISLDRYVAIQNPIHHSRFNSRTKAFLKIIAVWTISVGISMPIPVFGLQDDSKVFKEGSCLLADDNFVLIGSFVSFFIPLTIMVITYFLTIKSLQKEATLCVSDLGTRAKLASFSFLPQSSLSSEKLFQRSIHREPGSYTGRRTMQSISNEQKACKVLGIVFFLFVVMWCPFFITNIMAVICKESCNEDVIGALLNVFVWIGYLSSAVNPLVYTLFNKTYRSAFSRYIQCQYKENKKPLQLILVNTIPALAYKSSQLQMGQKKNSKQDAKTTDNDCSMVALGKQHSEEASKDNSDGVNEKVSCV

Assays:
[1] = biological target: 5-hydroxytryptamine receptor 2B (Homo sapiens, UniProt P41595); experiment: Antagonist activity at human recombinant 5HT2B receptor expressed in CHO cells assessed as increase in calcium levels; type: functional, cell-based
[2] = biological target: 5-hydroxytryptamine receptor 2A (Homo sapiens, UniProt P28223); experiment: Displacement of [3H]ketanserin from human recombinant 5HT2A receptor expressed in mouse NIH3T3 cells; type: cell-based

Row | Activity [1] | Ki [2] [nM] | Compound
1 | inactive | – | CC(C)c1nc2c(c(-c3ccc(F)cc3)n1)CCNCC2
2 | – | 11 | CCC(C)c1nc2c(c(-c3ccc(F)cc3)n1)CNCC2 (stereo not drawn)
3 | – | 2.5 | Cc1ccc(-c2nc(C3CCCC3)nc3c2CCNCC3)cc1

Activity calls are given as the source filed them. No cut-off for these calls is given here.
